Results on two molecules are retold here after article PMC9785492 (Viruses, 2022).

Amino acid sequences for entries named in this document (tags omitted). Residues count along the entry.
UniProt P03454, 18-342 limits assumed: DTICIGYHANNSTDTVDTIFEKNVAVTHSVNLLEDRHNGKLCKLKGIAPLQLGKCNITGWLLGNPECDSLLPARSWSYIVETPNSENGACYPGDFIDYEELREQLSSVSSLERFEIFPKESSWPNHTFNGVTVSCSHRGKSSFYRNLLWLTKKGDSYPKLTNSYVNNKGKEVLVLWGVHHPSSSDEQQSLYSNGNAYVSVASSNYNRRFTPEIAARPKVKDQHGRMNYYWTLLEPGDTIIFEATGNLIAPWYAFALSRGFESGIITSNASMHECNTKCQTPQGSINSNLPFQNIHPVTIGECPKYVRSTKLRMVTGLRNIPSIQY
UniProt P03470, whole entry, looked up: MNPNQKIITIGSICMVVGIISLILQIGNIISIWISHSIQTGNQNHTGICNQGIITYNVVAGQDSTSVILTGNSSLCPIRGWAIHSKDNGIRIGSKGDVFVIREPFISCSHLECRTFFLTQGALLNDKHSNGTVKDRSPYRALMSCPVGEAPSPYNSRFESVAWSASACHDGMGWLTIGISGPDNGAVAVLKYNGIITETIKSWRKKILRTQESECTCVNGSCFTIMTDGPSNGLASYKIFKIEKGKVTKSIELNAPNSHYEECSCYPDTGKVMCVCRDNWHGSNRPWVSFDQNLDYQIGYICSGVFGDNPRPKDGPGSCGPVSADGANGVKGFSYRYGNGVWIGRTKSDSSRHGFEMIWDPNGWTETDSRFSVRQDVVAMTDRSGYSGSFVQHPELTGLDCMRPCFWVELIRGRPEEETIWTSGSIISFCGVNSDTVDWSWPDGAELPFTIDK

In experiment [1] the test system is A/WSN/33. The experiment is classed as cell-based.
The target of experiment [2] is viral surface glycoprotein HA (HA1 subunit) (Influenza A virus, UniProt P03454).
Experiment [3] concerns the target NA enzyme activity (Influenza A virus, UniProt P03470).

Turning to `CC(=O)OCOC(=O)CN(CC(=O)OCOC(C)=O)c1ccccc1OCCOc1ccccc1N(CC(=O)OCOC(C)=O)CC(=O)OCOC(C)=O` [BAPTA-AM, 1,2-bis (o-aminophenoxy) ethane-N, N, N′, N′-tetraacetic acid acetoxymethyl ester], the “IAV replication (intracellular IAV RNA)” value in experiment [1] is given as “dramatically impaired”.
As to `COC(=O)C1=C(C)NC(C)=C(C(=O)OCC(C)C)C1c1ccccc1[N+](=O)[O-]` (stereo not drawn) [Nisoldipine], the “hemagglutination of red blood cells” value in experiment [2] is listed as “No significant inhibition effect”. Besides, the NA enzyme activity result in experiment [3] is “No significant inhibition effect”.
